In paper PMC8012336, “An automated and high-throughput-screening compatible pluripotent stem cell-based test platform for developmental and reproductive toxicity assessment of small molecule compounds” (Cell Biology and Toxicology, 2020):

System: mESC-D3
Assay: Automated mESC-D3 differentiation assay in 96-well round-bottom ultra-low attachment plates (cardiomyocyte contraction, day 10)
Format: cell-based, mouse
Details: beating cardiomyocytes at day 10, in brackets the two independent runs
Protocol: The mESC-D3 differentiation assay was automated in 96-well round-bottom ultra-low attachment plates (Costar, Cat. No. 7007) on the lab automation platform Fluent (Tecan). The method was set up for testing up to three different compounds in an automated procedure, resulting in maximal 9 plates that were being processed. A 7-point dilution series of test compounds and control solutions were prepared in PBS or DMSO under the laminar flow, transferred to a 96-well 0.5 ml Masterblock plate, and placed on the Fluent worktable. There the compounds were further diluted in growth media in a 96-well 2 ml Masterblock plate using the FCA. Of the compound solution, 10 μl/well were dispensed into a 96-well round well ultra-low attachment plate. In the meantime, a suspension of mESC-D3 (3.75 × 10^4 cells/ ml) was prepared in growth media and was placed in a trough on the worktable. The cell suspension was transferred into the 96-well round-bottom ultra-low attachment plate (40 μl/well) using the FCA. […] After further 3 days of incubation (= day 10 of the assay) cardiomyocyte contraction was determined in each well under the light microscope. Afterward, cells were stained and analyzed using the Opera High Content Screening System (PerkinElmer). […]

Cn1c(=O)c2c(ncn2C)n(C)c1=O [Caffeine, caffeine]
Differentiation assay in round bottom ULA microplate ID50 mESC-D3: > 200 (> 200; > 200) μg/ml
